IC50 data for seven molecules are collected here from ChEMBL document CHEMBL4422679, “Unexpected equivalent potency of a constrained chromene enantiomeric pair rationalized by co-crystal structures in complex with estrogen receptor alpha” (Bioorg Med Chem Lett, 2019).

Sequences of proteins named here, by UniProt entry; tags and fusion partners are left off.
UniProt P03372, whole entry: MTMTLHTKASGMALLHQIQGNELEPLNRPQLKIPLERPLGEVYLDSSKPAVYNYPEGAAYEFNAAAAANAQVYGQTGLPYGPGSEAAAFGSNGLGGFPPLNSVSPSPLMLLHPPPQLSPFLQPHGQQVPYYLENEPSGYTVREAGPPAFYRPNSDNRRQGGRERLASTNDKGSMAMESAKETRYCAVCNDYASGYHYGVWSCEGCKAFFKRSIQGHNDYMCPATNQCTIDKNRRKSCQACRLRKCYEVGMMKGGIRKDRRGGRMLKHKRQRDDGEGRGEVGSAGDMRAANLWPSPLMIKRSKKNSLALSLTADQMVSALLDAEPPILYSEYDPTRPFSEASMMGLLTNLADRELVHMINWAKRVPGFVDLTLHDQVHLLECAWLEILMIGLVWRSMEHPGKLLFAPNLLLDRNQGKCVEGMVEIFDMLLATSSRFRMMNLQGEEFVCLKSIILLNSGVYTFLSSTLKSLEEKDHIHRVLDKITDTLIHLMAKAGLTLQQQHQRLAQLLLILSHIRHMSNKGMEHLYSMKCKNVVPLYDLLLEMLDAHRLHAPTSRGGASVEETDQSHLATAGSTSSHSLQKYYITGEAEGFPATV

Broadly, the IC50 is the concentration that inhibits the measured activity by half. High values mean weaker potency in that assay, low ones greater potency in that assay.

This experiment has as its target Estrogen receptor (Homo sapiens, UniProt P03372).
Consider `Oc1ccc2c(c1)O[C@@H](c1ccc(OCCN3CC(CF)C3)cc1)C1=C2CCOc2cc(O)ccc21`, for which the midpoint of inhibition, the IC50, lay at 0.055 nM.

In turn, `C[C@@H](COc1ccc(C2Oc3cc(O)ccc3C3=C2c2ccc(O)cc2OCC3)cc1)N1CC[C@@H](CF)C1` (some centres not stated) gave an IC50 of 0.051 nM.

As to `Oc1ccc2c(c1)O[C@H](c1ccc(OCCN3CC(CF)C3)cc1)C1=C2CCOc2cc(O)ccc21`, half-maximal inhibition (IC50) required 0.059 nM. Under `Oc1ccc2c(c1)OC(c1ccc(OCCN3CC[C@@H](CF)C3)cc1)C1=C2CCOc2cc(O)ccc21` (some centres not stated) stands 0.076 nM.

In turn, `Oc1ccc2c(c1)OC(c1ccc(OCCN3CC(CF)C3)cc1)C1=C2CCOc2cc(O)ccc21` (racemic) had an IC50 of 0.045 nM.

The molecule `Oc1ccc2c(c1)OCCC1=C2C(c2ccc(OCCN3CC(CF)C3)cc2)Oc2ccc(O)cc21` (stereo in doubt; 17a) yielded an IC50 of 0.021 nM.

In the case of `Oc1ccc2c(c1)OCCC1=C2C(c2ccc(OCCN3CC(CF)C3)cc2)Oc2ccc(O)cc21` (stereo in doubt; 17b), 0.024 nM corresponded to half-maximal inhibition (IC50). The IC50 values of the last two molecules are within 1.5-fold of each other.
